The list shows a part of the results, in another mix than the full data. Some structures show a salt or complex split into parts, the way the source records it. Activity calls are given as the source filed them.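 How the source made its calls: active means mean lysis activity across replicates of at least 80%, whatever share of replicates individually reach that level; inactive means mean lysis activity below 80%.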

The nature of this assay: fungicidal lysis via adenylate kinase leakage – AK release luminescence, single concentration, primary screen (AID 651654). Conditions: C. neoformans lysis, 4 h, at 15 µM, active compounds read high, normalised: neutral wells 0, clomiphene wells 100. An outline of the steps:
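Material – log-phase Cryptococcus neoformans yeast cells · Input – 5 × 10^6 yeast cells/mL · Medium – fresh YPD growth medium · Doses – single compound concentration per well · Timing – static 4 h at 37 °C with compound, 1 h detection · Detection – adenylate kinase release luminescence · Read-out – signal increase indicating cell lysis · Control set – Clomiphene as positive lysis control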
With `COc1ccc(OP(C)(=O)Nc2cccc(Br)c2)cc1` (centres undefined), the lysis activity was inactive: 0.258%.
The figure for `CN(C)CCOC(=O)C(O)(c1ccccc1)C1CCCCC1` (centres undefined) is inactive: 3.83%.
With `COc1ccc(NP(C)(=O)Oc2ccccc2OC)cc1` (centres undefined) the figure was inactive: -0.327%.
As for `Cc1c([N+](=O)[O-])cc([N+](=O)[O-])c(Br)c1[N+](=O)[O-]`, the lysis activity is inactive: -1.49%.
For `CCN(CC)CCCOC(=O)C(O)(c1ccccc1)C1CCCCC1` (centres undefined), the lysis activity is inactive: 0.944%.
With `CP(=O)(Nc1ccccc1)Oc1ccc(F)cc1` (centres undefined) the figure was inactive: -0.731%.
The figure for `O=[N+]([O-])c1cc([N+](=O)[O-])c(OC2CCCCC2O)c([N+](=O)[O-])c1` (centres undefined) is inactive: 6.03%.
Regarding `CCCCCOc1ccc(NP(C)(=O)Oc2ccc(Cl)cc2Cl)cc1` (centres undefined), the lysis activity was inactive: -0.521%.
Take `CCOC(=O)c1ccc(NP(C)(=O)Oc2ccc(F)cc2)cc1` (centres undefined): the lysis activity was inactive: 0.029%.
Turning to `O=C(OCCN1CCN(CCOCc2ccccc2)CC1)C(O)(c1ccccc1)c1ccccc1`, the lysis activity was inactive: 1.79%.
For the compound `COc1ccc2c(c1O)-c1c(O)c(OC)cc3c1[C@H](C2)[N+](C)(C)CC3.O=[N+]([O-])c1cc([N+](=O)[O-])c([O-])c([N+](=O)[O-])c1[O-]`, the lysis activity was inactive: -0.96%.
As to `O=[N+]([O-])c1cc([N+](=O)[O-])c(Nc2ccc(Cl)cc2)c([N+](=O)[O-])c1`, the lysis activity was inactive: -3.95%.
As for `CP(=O)(Nc1ccccc1F)Oc1ccccc1` (centres undefined), the lysis activity was inactive: -2.23%.
`Cc1ccc(C)c(NP(C)(=O)Oc2ccccc2)c1` (centres undefined): the lysis activity is inactive: -1.06%.
Consider `Cc1cc(C)cc(OP(C)(=O)Nc2ccccn2)c1` (centres undefined), for which the lysis activity is inactive: 0.488%.
With `COc1ccccc1OP(C)(=O)Nc1cccc(Br)c1` (centres undefined), the lysis activity is inactive: 1.71%.
The figure for `Cc1cc(C)cc(OP(C)(=O)Nc2ccc(C)cc2C)c1` (centres undefined) is inactive: -4.04%; for `CC1=NCCc2c1[nH]c1ccccc21.O=[N+]([O-])c1cc([N+](=O)[O-])c(O)c([N+](=O)[O-])c1` it is inactive: -3.22%; for `O=C(O)c1cccc(Nc2c([N+](=O)[O-])cc([N+](=O)[O-])cc2[N+](=O)[O-])c1` it is inactive: -6.14%.
On to `COc1ccccc1OP(C)(=O)Nc1c(C)cccc1C` (centres undefined), for which the lysis activity was inactive: 0.113%.
As for `CCCOc1ccc(NP(C)(=O)Oc2ccc(Cl)cc2)cc1` (centres undefined), the lysis activity is inactive: -0.803%.
With `CCOC(=O)C(CC)C1=NC(C)(C)Cc2ccccc21.O=[N+]([O-])c1cc([N+](=O)[O-])c(O)c([N+](=O)[O-])c1` (centres undefined) the figure was inactive: 0.061%; with `CC1=C2N=C(C=C3N=C(C(C)=C4[N-][C@@](C)([C@@H]5N=C1[C@](C)(CCC(=O)NC[C@@H](C)OP(=O)([O-])O[C@H]1[C@@H](O)[C@@H](n6cnc7cc(C)c(C)cc76)O[C@@H]1CO)[C@H]5CC(N)=O)[C@@](C)(CC(N)=O)[C@@H]4CCC(N)=O)[C@@](C)(CC(N)=O)[C@@H]3CCC(N)=O)C(C)(C)[C@@H]2CCC(N)=O.[C-]#N.[Co+3]`, inactive: -1.23%; with `O=[N+]([O-])c1cc([N+](=O)[O-])c(Nc2nnnn2CCO)c([N+](=O)[O-])c1`, inactive: -2.51%.
Regarding `O=[N+]([O-])c1cc([N+](=O)[O-])c(-c2cnn(-c3ccccc3)c2)c([N+](=O)[O-])c1`, the lysis activity was inactive: -11.1%.
With `Cc1nc2ccc3ccccc3c2s1.O=[N+]([O-])c1cc([N+](=O)[O-])c(O)c([N+](=O)[O-])c1`, the lysis activity was inactive: 6.49%.
Consider `O=[N+]([O-])c1cc([N+](=O)[O-])c(-n2nnc3ccccc32)c([N+](=O)[O-])c1`, for which the lysis activity was inactive: -0.13%.
The figure for `CN(Cc1cccnc1)C(=O)COc1ccc(Cl)c(Cl)c1.O=[N+]([O-])c1cc([N+](=O)[O-])c(O)c([N+](=O)[O-])c1` is inactive: 2.71%; for `CCOC(=O)c1ccc(NP(C)(=O)Oc2ccc(OC)cc2)cc1` (centres undefined) it is inactive: 3.21%; for `O=[N+]([O-])c1cc([N+](=O)[O-])c(O)c([N+](=O)[O-])c1.c1ccc(Oc2ccncc2)cc1` it is inactive: 2.23%.
As to `CCOP(C)(=S)SCC(=O)NC(C)C(=O)O` (centres undefined), the lysis activity is inactive: 0.328%.
With `CP(=O)(Nc1ccccn1)Oc1ccc(Cl)cc1` (centres undefined), the lysis activity is inactive: 0.956%.
Consider `CP(=O)(Oc1ccccc1)OC(c1ccccc1)C(F)(F)F` (centres undefined), for which the lysis activity is inactive: -0.141%.
Turning to `Cc1cccc(C)c1OP(C)(=O)Nc1ccc(SC(F)(F)F)cc1` (centres undefined), the lysis activity is inactive: -1.24%.
Consider `Cc1ccc(Nc2c([N+](=O)[O-])cc([N+](=O)[O-])cc2[N+](=O)[O-])cc1`, for which the lysis activity is inactive: -3.36%.
For `CP(=O)(Nc1ccc(SC(F)(F)F)cc1)Oc1ccc(Cl)cc1` (centres undefined), the lysis activity was inactive: -0.096%.
On to `CCc1ccc(OP(C)(=O)N2CCN(c3ccc([N+](=O)[O-])cc3)CC2)cc1` (centres undefined), for which the lysis activity was inactive: 6.14%.
The figure for `CP(=S)(Nn1cnnc1)Oc1ccccc1` (centres undefined) is inactive: -3.66%.
The figure for `Cc1ccc(NP(C)(=O)Oc2ccccc2)c(C)c1` (centres undefined) is inactive: 1.2%.
Consider `COc1ccccc1OP(C)(=O)Nc1ccc(C)cc1` (centres undefined), for which the lysis activity was inactive: 2.28%.
Take `CCOC(=O)c1ccc(NP(C)(=O)Oc2ccccc2)cc1` (centres undefined): the lysis activity was inactive: 0.698%.
As for `Cc1cc(C)cc(OP(C)(N)=O)c1` (centres undefined), the lysis activity is inactive: 0.473%.
For `COc1ccc(OP(C)(=O)Nc2cccc(F)c2)cc1` (centres undefined), the lysis activity is inactive: -1.26%.
`O=[N+]([O-])c1cc([N+](=O)[O-])c(Nc2cccnc2)c([N+](=O)[O-])c1`: the lysis activity was inactive: 1.94%.

The values above are taken from PubChem BioAssay AID651654 (Broad Institute, 2012).
